# From US10174037B2, “Dihydropyrazolopyrimidinone compounds as PDE2 inhibitors” (Merck Sharp & Dohme Corp., priority 2015, dated 2019)
# Sequences of proteins named here, by UniProt entry; tags and fusion partners are left off. A line that says so, or that is headed by a name, gives the form on record, which may keep a tag or linker. Residues count along the entry.
# UniProt O00408, other isoform, or with tags, fused parts or gaps: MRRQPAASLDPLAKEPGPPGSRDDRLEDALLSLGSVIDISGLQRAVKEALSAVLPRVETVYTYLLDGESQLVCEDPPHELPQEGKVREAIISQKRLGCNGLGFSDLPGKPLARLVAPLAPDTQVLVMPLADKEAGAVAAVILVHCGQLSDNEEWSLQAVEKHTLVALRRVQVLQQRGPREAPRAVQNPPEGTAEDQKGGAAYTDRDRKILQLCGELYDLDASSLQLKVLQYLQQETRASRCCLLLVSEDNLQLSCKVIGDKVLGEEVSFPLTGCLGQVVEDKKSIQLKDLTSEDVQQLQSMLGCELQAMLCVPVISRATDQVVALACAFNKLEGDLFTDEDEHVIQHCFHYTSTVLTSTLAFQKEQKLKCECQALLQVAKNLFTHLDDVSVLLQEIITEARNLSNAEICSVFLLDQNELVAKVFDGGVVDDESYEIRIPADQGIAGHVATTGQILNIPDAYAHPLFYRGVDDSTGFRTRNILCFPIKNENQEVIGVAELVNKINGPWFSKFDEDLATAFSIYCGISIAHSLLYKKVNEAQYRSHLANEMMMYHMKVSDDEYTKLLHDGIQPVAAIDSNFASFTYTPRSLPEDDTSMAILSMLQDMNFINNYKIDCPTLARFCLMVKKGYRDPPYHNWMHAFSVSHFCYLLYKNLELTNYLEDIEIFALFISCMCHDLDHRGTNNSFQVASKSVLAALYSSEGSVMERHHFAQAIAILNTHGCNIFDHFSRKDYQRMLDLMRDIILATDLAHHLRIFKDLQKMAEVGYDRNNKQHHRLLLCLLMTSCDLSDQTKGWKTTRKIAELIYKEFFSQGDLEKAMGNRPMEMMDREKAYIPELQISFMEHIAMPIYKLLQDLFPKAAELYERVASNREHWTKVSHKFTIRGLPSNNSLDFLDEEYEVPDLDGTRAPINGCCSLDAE
# UniProt B3VTJ2, 1-941: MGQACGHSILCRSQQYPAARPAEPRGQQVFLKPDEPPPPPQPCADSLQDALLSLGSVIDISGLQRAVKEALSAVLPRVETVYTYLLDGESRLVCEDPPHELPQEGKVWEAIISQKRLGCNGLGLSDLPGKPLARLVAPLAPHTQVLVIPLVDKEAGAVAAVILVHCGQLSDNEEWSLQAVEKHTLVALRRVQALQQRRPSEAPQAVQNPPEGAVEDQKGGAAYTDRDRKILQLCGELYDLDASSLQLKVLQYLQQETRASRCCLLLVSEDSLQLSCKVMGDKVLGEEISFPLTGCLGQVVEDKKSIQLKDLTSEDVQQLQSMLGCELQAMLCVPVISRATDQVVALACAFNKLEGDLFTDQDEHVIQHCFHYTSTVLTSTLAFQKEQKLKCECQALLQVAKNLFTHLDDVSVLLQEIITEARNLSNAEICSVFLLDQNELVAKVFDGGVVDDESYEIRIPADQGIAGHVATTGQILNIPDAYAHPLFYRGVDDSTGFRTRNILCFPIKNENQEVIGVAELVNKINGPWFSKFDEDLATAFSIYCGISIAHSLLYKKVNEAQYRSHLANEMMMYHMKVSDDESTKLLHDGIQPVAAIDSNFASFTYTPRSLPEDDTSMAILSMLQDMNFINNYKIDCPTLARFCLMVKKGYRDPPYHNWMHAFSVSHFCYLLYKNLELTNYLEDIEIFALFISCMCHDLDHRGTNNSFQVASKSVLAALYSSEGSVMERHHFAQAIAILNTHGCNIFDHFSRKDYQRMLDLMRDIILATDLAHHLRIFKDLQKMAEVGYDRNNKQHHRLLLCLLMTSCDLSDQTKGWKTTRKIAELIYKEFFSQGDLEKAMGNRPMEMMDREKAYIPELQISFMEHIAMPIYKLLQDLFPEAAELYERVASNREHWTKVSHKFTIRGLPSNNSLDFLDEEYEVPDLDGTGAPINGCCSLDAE
# Biological target: human PDE2A1 (Homo sapiens (Human), UniProt O00408)
# Test: PDE selectivity IMAP FP assay, human PDE2A1
# Format: biochemical
# Conditions: Human PDE2; Lab B
# Protocol: Selectivity for PDE2, as compared to other PDE families, was assessed using the IMAP® technology. Human PDE10A2 enzyme was prepared from cytosolic fractions of transiently transfected HEK cells.
# A Labcyte POD 810 (Labcyte, Sunnyvale, Calif.) was used to dispense 200 nL from each well of the titration plate to make eleven copies of the assay plate for each titration, one copy for each PDE enzyme. A solution of each enzyme (dilution from aliquots, sufficient to produce 20% substrate conversion) and a separate solution of FAM-labeled cAMP or FAM-labeled cGMP from Molecular Devices (Sunnyvale, Calif., product # R7506 or cGMP#R7508), at a final concentration of 50 nM were made in the assay buffer (10 mM Tris HCl, pH 7.2, 10 mM MgCl2, 0.05% NaN3 0.01% Tween-20, and 1 mM DTT). Note that the substrate for PDE2 is 50 nM FAM cAMP containing 1000 nM of cGMP. The enzyme and the substrate were then added to the assay plates in two consecutive additions of 10 μL and then shaken to mix. The reaction was allowed to proceed at room temperature for 60 minutes. A binding solution was then made from the kit components, comprised of 80% Solution A, 20% Solution B and binding reagent at a volume of 1/600 the total binding solution. The enzymatic reaction was stopped by addition of 60 μL of the binding solution to each well of the assay plate. The plates were sealed and shaken for 10 seconds. The plates were incubated at room temperature for one hour, then the parallel and perpendicular fluorescence was measured using a Tecan Genios Pro plate reader (Tecan, Switzerland). […] The intrinsic PDE2 inhibitory activity of a compound which may be used in accordance with the present invention may be determined by these assays. […]
# The PDE2 Ki is a measure of the ability of the test compound to inhibit the action of the PDE2 enzyme.
row,Ki,SMILES
1,12 nM,"O=c1[nH]c(O)nc2c1c(CO)nn2C(c1ccc(C(F)(F)F)cc1)C1CC1 (single isomer, unassigned) [Example 15, (S) or (R)-1-(Cyclopropyl(4-(trifluoromethyl)phenyl)methyl)-6-hydroxy-3-(hydroxymethyl)-1H-pyrazolo[3,4-d]pyrimidin-4(5H)-one]"
2,0.32 nM,"CC(C)C(c1ccc(CC(F)(F)F)cc1)n1nc(CO)c2c(=O)[nH]c(N(C)C)nc21 (single isomer, unassigned) [Example 88, (R)- or (S)-6-(Dimethylamino)-3-(hydroxymethyl)-1-(2-methyl-1-(4-(2,2,2-trifluoroethyl)phenyl)propyl)-1H-pyrazolo[3,4-d]pyrimidin-4(5H)-one]"
3,0.32 nM,"CCC(c1ccc(CC(F)(F)F)c(F)c1)n1nc(CO)c2c(=O)[nH]c(N(C)C)nc21 (single isomer, unassigned) [Example 96, (R)- or (S)-6-(Dimethylamino)-1-(1-(3-fluoro-4-(2,2,2-trifluoroethyl)phenyl)propyl)-3-(hydroxymethyl)-1H-pyrazolo[3,4-d]pyrimidin-4(5H)-one]"
4,8.3 nM,"O=c1[nH]c(O)nc2c1c(CC(F)(F)F)nn2C(c1ccc(C(F)(F)F)cc1)C1CC1 (single isomer, unassigned) [Example 227]"

# Further lines, the compound ahead of its results:
row,SMILES,Ki
1,"CC(c1ccc(OC(F)(F)F)c(F)c1)n1nc(CO)c2c(=O)[nH]c(O)nc21 (single isomer, unassigned) [Example 10]",185 nM
2,"CC(c1ccc(OC(F)(F)F)c(F)c1)n1nc(CO)c2c(=O)[nH]c(O)nc21 (single isomer, unassigned) [Example 11]",27 nM
3,"CC(C)C(c1ccc(OC(F)(F)F)c(F)c1)n1nc(CF)c2c(=O)[nH]c(O)nc21 (single isomer, unassigned) [Example 53]",5.3 nM
4,"CC(C)C(c1ccc(OC(F)(F)F)c(F)c1)n1nc(CF)c2c(=O)[nH]c(O)nc21 (single isomer, unassigned) [Example 54]",6 nM
5,"CCC(c1ccc(C(F)F)c(F)c1)n1nc(CO)c2c(=O)[nH]c(N(C)C)nc21 (single isomer, unassigned) [Example 147]",0.52 nM
6,"CC(C)C(c1ccc(C(F)(F)F)c(F)c1)n1nc(CF)c2c(=O)[nH]c(N(C)C)nc21 (single isomer, unassigned) [Example 220, (R)- or (S)-6-(Dimethylamino)-1-(1-(3-fluoro-4-(trifluoromethyl)phenyl)-2-methylpropyl)-3-(fluoromethyl)-1H-pyrazolo[3,4-d]pyrimidin-4(5H)-one]",0.32 nM

# Biological target: Rhesus PDE2A3 (Macaca mulatta, UniProt B3VTJ2)
# Test: PDE2 fluorescence polarization (IMAP FP) assay, rhesus PDE2A3
# Format: biochemical, rhesus macaque
# Conditions: Lab B
# Protocol: A Labcyte Echo 555 (Labcyte, Sunnyvale, Calif.) is used to dispense 200 nL from each well of the titration plate to the 384 well assay plate. Ten microliters of a solution of enzyme (1/2000 final dilution from aliquots; sufficient to produce 20% substrate conversion) was added to the assay plate. Next 10 uL of a separate solution of the substrate FAM-labeled cAMP (50 nM final concentration product # R7506 from Molecular Devices) and the activator cGMP (1 uM final concentration), prepared in the assay buffer (10 mM Tris HCl, pH 7.2, 10 mM MgCl2, 0.05% NaN3 0.01% Tween-20, and 1 mM DTT) was added to the assay plate and shaken to mix. The reaction is allowed to proceed at room temperature for 60 minutes. A binding solution is then made from the kit components, comprised of 80% Solution A, 20% Solution B and binding reagent at a volume of 1/600 the total binding solution. The enzymatic reaction is stopped by addition of 60 μL of the binding solution to each well of the assay plates and the plates are sealed and shaken for 30 seconds. The plate was incubated at room temperature for at least one hour prior to determining the fluorescence polarization (FP). The parallel and perpendicular fluorescence of each well of the plate was measured using a Tecan Genios Pro plate reader (Tecan, Switzerland) or Perkin Elmer EnVision™ plate reader (Waltham, Mass.). Fluorescence polarization (mP) was calculated from the parallel (S) and perpendicular (P) fluorescence of each sample well and the analogous values for the median control well, containing only substrate (So and Po), using the following equation: Polarization (mP)=1000*(S/So−P/Po)/(S/So+P/Po).
# Dose-inhibition profiles for each compound were characterized by fitting the mP data to a four-parameter equation given below.
# An apparent (KM) for FAM-labeled cAMP of ˜10 uM was used.
row,Ki,SMILES
1,0.32 nM,"CC(c1ccc(C(C)(C)C)cc1)n1nc(CO)c2c(=O)[nH]c(N(C)C)nc21 (single isomer, unassigned) [Example 67, (S)- or (R)-1-(1-(4-tert-Butylphenyl)ethyl)-6-(dimethylamino)-3-(hydroxymethyl)-1H-pyrazolo[3,4-d]pyrimidin-4(5H)-one]"
2,0.31 nM,"CC(C)C(c1ccc(CC(F)(F)F)cc1)n1nc(CO)c2c(=O)[nH]c(N(C)C)nc21 (single isomer, unassigned) [Example 88, (R)- or (S)-6-(Dimethylamino)-3-(hydroxymethyl)-1-(2-methyl-1-(4-(2,2,2-trifluoroethyl)phenyl)propyl)-1H-pyrazolo[3,4-d]pyrimidin-4(5H)-one]"
3,0.3 nM,"CC(C)C(c1ccc(CC(F)(F)F)cc1)n1nc(CO)c2c(=O)[nH]c(N(C)C)nc21 (single isomer, unassigned) [Example 89, (S)- or (R)-6-(Dimethylamino)-3-(hydroxymethyl)-1-(2-methyl-1-(4-(2,2,2-trifluoroethyl)phenyl)propyl)-1H-pyrazolo[3,4-d]pyrimidin-4(5H)-one]"
4,0.32 nM,"CC(c1ccc(CC(F)(F)F)cc1)n1nc(CF)c2c(=O)[nH]c(N(C)C)nc21 (single isomer, unassigned) [Example 175, (S)- or (R)-6-(Dimethylamino)-3-(fluoromethyl)-1-(1-(4-(2,2,2-trifluoroethyl)phenyl)ethyl)-1H-pyrazolo[3,4-d]pyrimidin-4(5H)-one]"

# More lines, now with the values behind:
row,SMILES,Ki
1,"CC(C)C(c1ccc(OC(F)(F)F)c(F)c1)n1nc(CF)c2c(=O)[nH]c(O)nc21 (single isomer, unassigned) [Example 54]",7.5 nM
2,"CCC(c1ccc(CC(F)(F)F)cc1)n1nc(CO)c2c(=O)[nH]c(N(C)C)nc21 (single isomer, unassigned) [Example 99, (S)- or (R)-6-(Dimethyiamino)-3-(hydroxymethyl)-1-(1-(4-(2,2,2-trifluoroethyl)phenyl)propyl)-1H-pyrazolo[3,4-d]pyrimidin-4(5H)-one]",0.38 nM
3,"CC(C)C(c1ccc(C(F)F)c(F)c1)n1nc(CO)c2c(=O)[nH]c(N(C)C)nc21 (single isomer, unassigned) [Example 115, (R)- or (S)-1-(1-(4-(Difluoromethyl)-3-fluorophenyl)-2-methylpropyl)-6-(dimethylamino)-3-(hydroxymethyl)-1H-pyrazolo[3,4-d]pyrimidin-4(5H)-one]",0.32 nM
